Source: patent publication US20060198882A1, “Stable liposomes or micelles comprising a sphinolipid and a peg-lipopolymer” (priority 2003, published 2006)

Experiments:
[1] = Partition in the two phases of the Dole system; assay type: physicochemical
[2] = Partition in the two phases of the Dole system; assay type: physicochemical; remark: listed apart in the source
Procedure: The distribution of the C18 sphingosine-based ceramides with different acyl chain lengths and of DMS between the polar phase and respectively less polar phase (as defined below) of the Dole two phase system was determined. […] The different ceramides included: short (C2 Cer and C4 Cer), medium (C6 Cer and C8 Cer), long (C16 Cer). […] In: Liposome Technology 2nd Edn., G Gregoriadis (Ed.) CRC Press, Boca Raton, 1993, vol. 1, pp: 527-616]. The amount of each of the lipids used in each of the two phases was measured by thin-layer chromatography (TLC). For ceramide quantification TLC was developed in a solvent system containing chloroform/methanol (95:5 v/v). For DMS quantification TLC was developed in a solvent system containing chloroform/methanol/ammonia (89/9/2 v/v). Further, the TLC plate was sprayed with Copper sulfate reagent composed of 100 g anhydrous copper sulfate containing 80 ml of phosphoric acid (85%), %) dissolved in 600 ml of DDW. Copper sulphate reagent was applied to the plates by spraying, then heated and lipids appeared as dark brown spot. […] Quantity of ceramides in each phase was calculated from a standard curve of appropriate ceramide. […] (1993)Supra]. The distribution between the two Dole system phases was determined by the equation (as exemplified for ceramide): [formula] [formula] […]

N-carbamyl-poly-(ethylene glycol methyl ether)-1,2-distearoyl-sn-glycero-3-phosphoethanolamine triethyl ammonium salt [^2kPEG-DSPE]
Liposome formation (being a liposome forming lipid by itself) [1]: No
% of lipid in heptane-rich upper phase [2]: 0%
% of lipid in isopropanol/water lower phase [2]: 100%
